According to publication PMC2727864 (Molecular cancer therapeutics, 2008):

Biological target: T1, PDK1 PH domain (Homo sapiens, UniProt O15530)
T1 sequence (O15530 407-549): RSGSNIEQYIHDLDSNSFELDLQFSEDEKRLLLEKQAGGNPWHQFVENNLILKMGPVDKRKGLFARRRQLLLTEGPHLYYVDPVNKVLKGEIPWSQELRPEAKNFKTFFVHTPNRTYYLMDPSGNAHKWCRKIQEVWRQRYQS
Assay: Surface plasmon resonance
Assay type: binding

For `CC1=NN(C(=O)c2ccc(Cl)cc2)C(=O)C1N=Nc1ccc(S(=O)(=O)Nc2ncccn2)cc1` (stereo not shown) [Compound 1, 4-[1-(4-Chlorobenzoyl)-3-methyl-5-oxo-4,5-dihydro-1H-pyrazol-4-ylazo]-N-pyrimidin-2-yl-benzenesulfonamide], the Kd was 31.3 ± 9.54 µM.
